Protein sequences, listed by entry. Tags and fused reporters are not part of them.
UniProt P21397, whole entry: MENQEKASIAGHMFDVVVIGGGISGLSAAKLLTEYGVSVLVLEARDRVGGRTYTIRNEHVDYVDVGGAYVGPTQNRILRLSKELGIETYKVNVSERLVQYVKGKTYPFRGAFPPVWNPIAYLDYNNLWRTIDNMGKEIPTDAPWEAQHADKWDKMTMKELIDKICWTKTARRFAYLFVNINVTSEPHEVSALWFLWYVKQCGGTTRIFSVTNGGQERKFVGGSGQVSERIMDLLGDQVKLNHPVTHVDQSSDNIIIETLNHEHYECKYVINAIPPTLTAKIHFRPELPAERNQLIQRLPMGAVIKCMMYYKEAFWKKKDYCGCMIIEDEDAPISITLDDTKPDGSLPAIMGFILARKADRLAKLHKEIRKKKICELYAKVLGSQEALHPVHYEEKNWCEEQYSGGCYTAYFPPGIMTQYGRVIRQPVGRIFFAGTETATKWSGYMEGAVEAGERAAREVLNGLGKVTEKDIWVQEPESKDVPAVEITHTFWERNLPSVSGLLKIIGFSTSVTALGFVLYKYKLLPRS

According to ChEMBL document CHEMBL4431386, “Potent selective monoamine oxidase B inhibition by maackiain, a pterocarpan from the roots of Sophora flavescens” (Bioorg Med Chem Lett, 2016):

Biological target: Amine oxidase [flavin-containing] A (Homo sapiens, UniProt P21397)
Experiment: Inhibition of recombinant human MAO-A expressed in baculovirus infected BTI insect cells preincubated for 10 mins followed by addition of kynuramine as substrate

In the case of `C#CCN(C)Cc1ccccc1` [PARGYLINE], the IC50 is reported as > 2 µM.
